Experimental data published in paper PMC6273627, “Extended N-Arylsulfonylindoles as 5-HT6 Receptor Antagonists: Design, Synthesis & Biological Evaluation” (Molecules, 2016).

By UniProt entry, the sequences of proteins in these tests, tags left out.
UniProt P50406, whole entry: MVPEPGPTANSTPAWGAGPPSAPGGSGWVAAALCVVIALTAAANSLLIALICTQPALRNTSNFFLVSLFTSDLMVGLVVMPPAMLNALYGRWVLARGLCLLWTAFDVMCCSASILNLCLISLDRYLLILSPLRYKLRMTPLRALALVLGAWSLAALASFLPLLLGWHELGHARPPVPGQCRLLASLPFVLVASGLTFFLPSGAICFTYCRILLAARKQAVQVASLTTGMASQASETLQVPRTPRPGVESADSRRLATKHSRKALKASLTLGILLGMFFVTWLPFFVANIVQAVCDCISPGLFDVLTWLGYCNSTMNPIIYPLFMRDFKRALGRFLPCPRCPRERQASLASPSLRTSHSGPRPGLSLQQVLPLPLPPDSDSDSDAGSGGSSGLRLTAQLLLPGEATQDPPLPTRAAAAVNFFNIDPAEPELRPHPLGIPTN

Columns and labels:
[1] = target: T1, recombinant human 5-HT6 receptor (Homo sapiens, UniProt P50406); assay: biochemical
[2] = target: T1, recombinant human 5-HT6 receptor; settings: for pKi: experimental value repeated in Table 5 beside docking scores (value of the tested compound, listed per docked stereoisomer)

Ki [1] [nM] | pKi [2] | decrease in affinity with pyridyl versus 2-methoxyphenyl group ([2]; compared with 4b, 4g, 4j) | SMILES
19100 | 4.72 |  | O=C(CN1CCN(c2ncccn2)CC1)c1cn(S(=O)(=O)c2ccc(F)cc2)c2ccccc12 [Compound 3e, 1-(1-(4-Fluorophenylsulfonyl)-1H-indol-3-yl)-2-(4-(pyrimidin-2-yl)piperazin-1-yl)ethanone]
776 | 6.11 |  | Cc1ccc(S(=O)(=O)n2cc(C(=O)CN3CCN(c4ncccn4)CC3)c3ccccc32)cc1 [Compound 3c, 2-(4-(Pyrimidin-2-yl)piperazin-1-yl)-1-(1-tosyl-1H-indol-3-yl)ethanone]
479 |  | 10–35 times | Cc1ccc(S(=O)(=O)n2cc(C(O)CN3CCN(c4ccccn4)CC3)c3ccccc32)cc1 (stereo not drawn) [Compound 4a, 2-(4-(Pyridin-2-yl)piperazin-1-yl)-1-(1-tosyl-1H-indol-3-yl)ethanol]
